The values below come from patent US20060079566A1, “PDK-1/Akt signaling inhibitors” (priority 2003, published 2006).

For orientation: IC50 means the concentration that gives 50% inhibition. What is called GI50 is the concentration that inhibits growth by half. Low readings indicate greater sensitivity of the cells, high ones lower sensitivity of the cells.

Read-outs that look alike come from different tables or passages of the source.

One test deals with T1, recombinant PDK-1 (Homo sapiens, UniProt O15530).
T1 construct: purchased Upstate (Lake Placid, N.Y.)
T1 sequence (O15530 1-556): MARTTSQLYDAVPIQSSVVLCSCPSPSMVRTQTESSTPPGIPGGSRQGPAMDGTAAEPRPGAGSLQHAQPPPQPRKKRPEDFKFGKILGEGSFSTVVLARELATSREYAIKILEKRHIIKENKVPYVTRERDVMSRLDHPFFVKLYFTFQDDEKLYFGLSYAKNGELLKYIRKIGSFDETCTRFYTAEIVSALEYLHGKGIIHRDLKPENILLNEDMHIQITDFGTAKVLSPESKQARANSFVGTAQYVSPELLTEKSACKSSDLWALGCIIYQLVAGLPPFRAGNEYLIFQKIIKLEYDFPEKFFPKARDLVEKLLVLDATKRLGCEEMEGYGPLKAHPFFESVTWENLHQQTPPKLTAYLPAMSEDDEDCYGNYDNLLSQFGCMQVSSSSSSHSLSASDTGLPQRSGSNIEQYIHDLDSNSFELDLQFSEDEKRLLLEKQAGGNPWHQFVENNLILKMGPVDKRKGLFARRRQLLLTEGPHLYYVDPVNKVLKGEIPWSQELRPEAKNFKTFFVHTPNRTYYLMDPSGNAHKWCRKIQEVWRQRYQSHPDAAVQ
The experiment in a line: PDK-1 kinase activity (Upstate kit, SGK-coupled, cell-free). The class given is biochemical.

Another test has as its system HOP-92. The experiment in a line: NCI DTP screen (SRB), Non-Small Cell Lung Cancer. The test is classed as cell-based. To be noted: Homo sapiens. The protocol: (§1) Screening of compounds 70 and 71 against several cancer cell lines The human tumor cell lines of the cancer screening panel are grown in RPMI 1640 medium containing 5% fetal bovine serum and 2 mM L-glutamine. For a typical screening experiment, cells are inoculated into 96 well microtiter plates in 100 μL at plating densities ranging from 5,000 to 40,000 cells/well depending on the doubling time of individual cell lines. After cell inoculation, the microtiter plates are incubated at 37° C., 5% CO2, 95% air and 100% relative humidity for 24 h prior to addition of experimental drugs. […]
(§2) Following drug addition, the plates are incubated for an additional 48 h at 37° C., 5% CO2, 95% air, and 100% relative humidity. […] Bound stain is subsequently solubilized with 10 mM trizma base, and the absorbance is read on an automated plate reader at a wavelength of 515 nm. […] Using the seven absorbance measurements [time zero, (Tz), control growth, (C), and test growth in the presence of drug at the five concentration levels (Ti)], the percentage growth is calculated at each of the drug concentrations levels. Percentage growth inhibition is calculated as: [(Ti−Tz)/(C−Tz)]×100 for concentrations for which Ti>/=Tz [(Ti−Tz)/Tz]×100 for concentrations for which Ti<Tz
(§3) Three dose response parameters are calculated for each experimental agent. […]

In a further test the test system is UACC-62. The experiment in a line: NCI DTP screen (SRB), Melanoma. The test is classed as cell-based. The note with it: Homo sapiens. On the procedure: as §1, §2, §3
The test system of another test is MALNE-3M. The experiment in a line: NCI DTP screen (SRB), Melanoma. The test is classed as cell-based. The note with it: Homo sapiens. The protocol:
as §1, §2, §3

Where [1] appears, read: inhibiting recombinant PDK-1 kinase activity, read-out: IC50 PDK-1.

As for `NS(=O)(=O)c1ccc(-n2nc(C(F)(F)F)cc2-c2ccc3ccccc3c2)cc1` [Compound 43, 4-[5-(2-naphthalenyl)-3-(trifluoromethyl)-1H-pyrazol-1-yl]benzenesulfonamide], the IC50 at recombinant PDK-1 came to 24 µM.
On to `Cc1ccc(-c2ccc(-c3cc(C(F)(F)F)nn3-c3ccc(S(N)(=O)=O)cc3)cc2)cc1` [Compound 50, 4-[5-(4′-methyl[1,1′-biphenyl]4-yl)-3-(trifluoromethyl)-1H-1-yl]benzenesulfonamide], for which the concentration for half-maximal inhibition (IC50) on recombinant PDK-1 was found to be 15 µM.
As to `NS(=O)(=O)c1ccc(-n2nc(C(F)(F)F)cc2-c2ccc(Cc3ccccc3)cc2)cc1` [Compound 56, 4-[5-(4-(phenylmethyl)phenyl)-3-(trifluoromethyl)-1H-1-yl]benzenesulfonamide], the IC50 on recombinant PDK-1 (setting [1]) came to 15 µM.
Regarding `N=C(Cc1ccc(-n2nc(C(F)(F)F)cc2-c2ccc3c(ccc4ccccc43)c2)cc1)NO` [Compound 68, 2-{4-[5-(2-Phenanthrenyl)-3-(trifluoromethyl)-1H-pyrazol-1-y]-phenyl}-N-hydroxy-acetamidine], at recombinant PDK-1 (setting [1]), the IC50 turned out to be 15 µM.
For the compound `NCC(=O)Nc1ccc(-n2nc(C(F)(F)F)cc2-c2ccc3c(ccc4ccccc43)c2)cc1` [Compound 70, 2-Amino-N-{4-[5-(2-phenanthrenyl)-3-(trifluoromethyl)-1H-pyrazol-1-yl]-phenyl}-acetamide], the GI50 is 1610 nM in the test on HOP-92, 1530 nM with UACC-62 and 1740 nM in the test with MALNE-3M.
